Experimental data reported in publication PMC10377281, “Purification and Immobilization of Superoxide Dismutase Obtained from Saccharomyces cerevisiae TBRC657 on Bacterial Cellulose and Its Protective Effect against Oxidative Damage in Fibroblasts” (2023).

The chains behind the UniProt entries cited, without tags or fusion partners. Residues count along the entry.
UniProt P00447, 27-233 limits assumed: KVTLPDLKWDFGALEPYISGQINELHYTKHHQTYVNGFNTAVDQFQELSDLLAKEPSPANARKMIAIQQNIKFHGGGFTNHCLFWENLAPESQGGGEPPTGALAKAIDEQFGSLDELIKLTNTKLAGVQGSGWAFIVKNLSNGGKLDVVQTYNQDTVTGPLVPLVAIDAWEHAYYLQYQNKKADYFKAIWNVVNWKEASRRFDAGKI

Target: purified SOD (Mn-SOD) (Saccharomyces cerevisiae, UniProt P00447)
Assay: residual SOD activity, WST-1 formazan kit
Details: 1000 µM; preincubated 1.0 mM, 4 °C, 10 min; assay pH 7.0, 35 °C; value is remaining activity (control 100), not per cent inhibition

SMILES: [N-]=[N+]=N
- Relative Activity (%): 67.06 ± 2.23%
